We go through one compound from ChEMBL document CHEMBL1136840 (Bioorg Med Chem Lett, 2009).

Amino acid sequences for entries named in this document (tags omitted). Residues count along the entry.
UniProt Q99N23, 19-324 limits assumed: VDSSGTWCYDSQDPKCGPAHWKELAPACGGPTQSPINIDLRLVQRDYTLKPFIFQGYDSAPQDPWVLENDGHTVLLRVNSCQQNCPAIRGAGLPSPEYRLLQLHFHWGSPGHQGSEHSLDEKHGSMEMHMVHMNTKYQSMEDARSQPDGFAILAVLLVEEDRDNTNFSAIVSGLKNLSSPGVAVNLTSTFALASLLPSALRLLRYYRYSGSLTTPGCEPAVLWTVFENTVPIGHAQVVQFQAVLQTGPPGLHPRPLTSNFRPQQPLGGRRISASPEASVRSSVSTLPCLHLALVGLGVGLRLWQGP

In this assay the target is Carbonic anhydrase 15 (Mus musculus, UniProt Q99N23). The conditions noted are these: cos-7.

For the compound `O=[As](O)(O)c1ccccc1`, the inhibition constant (Ki) came to 68.2 µM.
